# Data as given in US4652586A, “Selective beta-2 adrenergic antagonists for the treatment of glaucoma” (priority 1980, dated 1987).
# Columns and labels:
# [1] = test system: beta2 adrenergic receptor present in mammalian lung; conditions: Table II; IHYP binding; from Table I; accurate to ±20%
# lung adenylate cyclase = conditions: Table II; from Table I; accurate to ±20%
Structure (SMILES),β2/β1 potency ratio (Kd heart/Kd lung) [1],β2/β1 potency ratio (Ki heart/Ki lung) (lung adenylate cyclase)
COc1ccc(OC)c(C(O)C(C)NC(C)(C)C)c1 (stereo not shown) [Butoxamine],1.98,4.88
"Cc1ccc(C(O)C(C)NC(C)C)cc1 (stereo not shown) [H35/25, (1(4'-methyl phenyl)-2-isopropylaminopropanol)]",2.3,1.58
